Assays:
Assay type in all cases: biochemical
Csn5 = Csn5 (Homo sapiens (Human), UniProt Q92905); experiment: Csn5 activity assay (fluorescence polarization, SCF^skp2-Nedd8OG, COP9 Signalosome Complex); conditions: Table 2
Excerpt: 30, 2013, and Arnst et al., 2013, “High-throughput compatible fluorescence resonance energy transfer-based assay to identify small molecule inhibitors of AMSH deubiquitinase activity,” Anal Biochem, 440; 71-77, the entire contents of both of which are herein incorporated by reference.
Csn5 Activity Assay. […] In brief, a fluorescent substrate termed SCF^skp2-Nedd8OG was produced to measure CSN5 activity in vitro. This assay measures the decrease in fluorescence polarization due to the decrease in apparent molecular weight of Oregon Green (OG) fluorophore (from the ˜175 kDa substrate to ˜9 kDa Nedd8OG) as a result of Csn5-mediated cleavage of the isopeptide bond that links Nedd8OG to SCF^Skp2. The assay was performed in a low-volume 384 well solid black plate comprising equal volumes of compound, substrate (SCF^skp2-Need8OG) and enzyme (purified COP9 Signalosome Complex, CSN). Fluorescence polarization was recorded using the same setting as for the Rpn11 activity assay. IC50 was calculated as described in Example 75.

Sequences of proteins named here, by UniProt entry; tags and fusion partners are left off. A change or cut given only in a name is not applied to a line headed by its entry.
UniProt Q92905: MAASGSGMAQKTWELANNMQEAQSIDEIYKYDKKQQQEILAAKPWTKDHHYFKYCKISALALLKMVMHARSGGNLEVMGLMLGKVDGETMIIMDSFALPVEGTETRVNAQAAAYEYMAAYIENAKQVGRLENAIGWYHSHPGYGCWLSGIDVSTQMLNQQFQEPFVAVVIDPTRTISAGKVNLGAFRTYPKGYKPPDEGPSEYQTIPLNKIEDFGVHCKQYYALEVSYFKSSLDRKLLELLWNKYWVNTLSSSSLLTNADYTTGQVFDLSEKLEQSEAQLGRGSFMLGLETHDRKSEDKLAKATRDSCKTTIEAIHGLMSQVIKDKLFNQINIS
UniProt O95630, whole entry: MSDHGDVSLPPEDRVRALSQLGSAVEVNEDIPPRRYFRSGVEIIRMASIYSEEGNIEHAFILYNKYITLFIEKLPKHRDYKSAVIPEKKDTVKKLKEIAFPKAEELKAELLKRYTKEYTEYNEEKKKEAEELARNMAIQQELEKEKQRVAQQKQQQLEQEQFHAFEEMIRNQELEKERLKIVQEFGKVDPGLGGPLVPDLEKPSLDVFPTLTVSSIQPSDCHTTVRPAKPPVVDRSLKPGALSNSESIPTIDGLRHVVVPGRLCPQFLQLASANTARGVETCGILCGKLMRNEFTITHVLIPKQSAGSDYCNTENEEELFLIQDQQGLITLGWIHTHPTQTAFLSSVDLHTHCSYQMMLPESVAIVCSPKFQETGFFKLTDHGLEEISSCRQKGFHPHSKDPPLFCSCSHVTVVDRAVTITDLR
UniProt O00487, whole entry, looked up: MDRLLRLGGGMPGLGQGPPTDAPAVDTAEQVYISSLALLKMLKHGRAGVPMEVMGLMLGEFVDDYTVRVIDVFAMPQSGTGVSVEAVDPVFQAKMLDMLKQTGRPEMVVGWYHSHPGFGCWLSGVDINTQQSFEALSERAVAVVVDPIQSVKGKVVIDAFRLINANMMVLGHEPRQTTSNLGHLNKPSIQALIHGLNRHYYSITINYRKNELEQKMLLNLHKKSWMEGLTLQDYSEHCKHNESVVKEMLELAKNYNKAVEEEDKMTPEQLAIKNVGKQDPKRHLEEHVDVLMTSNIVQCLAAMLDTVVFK

AMSH = AMSH (Homo sapiens (Human), UniProt O95630); experiment: AMSH activity assay (DiUb^K63TAMRA cleavage, fluorescence); conditions: Table 2
Excerpt: AMSH Activity Assay. AMSH is known to selectively cleave ubiquitin chains in which the ubiquitins are joined via K63 of the proximal ubiquitin linked by an isopeptide bond to the carboxy terminus of the distal ubiquitin. […] In brief, DiUb^K63TAMRA was labeled with quench pairs TAMRA/QXL.

Rpn11 = Rpn11 (Homo sapiens (Human), UniProt O00487); experiment: Rpn11 activity assay (fluorescence polarization, Ub4-pepOG cleavage by 26S proteasome); conditions: Table 2; 1 mM DTT in assay reduces disulfides to monomeric active species
Excerpt: Candidate compounds according to embodiments of the present invention were synthesized as described herein. […] In brief, this Rpn11 bioassay employs a fluorescent polarization readout based on the ability of the 26S proteasome to cleave the protein substrate including four tandem ubiquitin proteins fused to a peptide having a unique cysteine labeled with a fluorophore. Cleavage of this substrate by Rpn11 at the junction between the fourth ubiquitin and the peptide, releases the low molecular weight fluorescent peptide. Accordingly, inhibition of fluorescence correlates with inhibition of Rpn11. Inhibition is reported as the half maximal inhibitory concentration (IC50) for the candidate compound.
Rpn11 Activity Assay. […] In brief, in order to measure the Rpn11 activity, a synthetic peptide substrate, termed Ub4-pepOG, was engineered. […] Fluorescence polarization assay was performed in a low-volume 384 well solid black plate where the components are added in the follow sequence: 1) 5 μl compound in 3% DMSO or 3% DMSO control 2) 5 μl 26S proteasome (Enzo Life Sciences Inc, NY). […] Fluorescence polarization is measured using a PHERAstar (BMG labtech, Ortenberg, Germany) plate reader with excitation of 480 nm and emission of 520 nm filter set. […]

Question: Which IC50 (Csn5) does the source give for O=C(NCc1ccc(N2CCOCC2)cc1)c1cnc2c(SSc3cccc4cc(C(=O)NCc5ccc(N6CCOCC6)cc5)cnc34)cccc2c1 [Compound 21, 8,8′-Disulfanediylbis(N-(4-morpholinobenzyl)quinoline-3-carboxamide)] here?
Answer: Its IC50 is 350 nM.

Question: How did the IC50 (AMSH) turn out when O=C(NCCc1nccs1)c1cnc2c(SSc3cccc4cc(C(=O)NCCc5nccs5)cnc34)cccc2c1 [Compound 12, 8,8′-Disulfanediylbis(N-(2-(thiazol-2-yl)ethyl)quinoline-3-carboxamide)] was run?
Answer: The IC50 was 4500 nM.

Question: For CNC(=O)c1cnc2c(SSc3cccc4cc(C(=O)NC)cnc34)cccc2c1 [Compound 2, 8,8′-Disulfanediylbis(N-methylquinoline-3-carboxamide)], which IC50 (Rpn11) is on record?
Answer: The IC50 was 1600 nM.
